SMILES strings stand for the structures.

Chains of the proteins cited; added tags and fusions are not shown.
UniProt P61073, whole entry: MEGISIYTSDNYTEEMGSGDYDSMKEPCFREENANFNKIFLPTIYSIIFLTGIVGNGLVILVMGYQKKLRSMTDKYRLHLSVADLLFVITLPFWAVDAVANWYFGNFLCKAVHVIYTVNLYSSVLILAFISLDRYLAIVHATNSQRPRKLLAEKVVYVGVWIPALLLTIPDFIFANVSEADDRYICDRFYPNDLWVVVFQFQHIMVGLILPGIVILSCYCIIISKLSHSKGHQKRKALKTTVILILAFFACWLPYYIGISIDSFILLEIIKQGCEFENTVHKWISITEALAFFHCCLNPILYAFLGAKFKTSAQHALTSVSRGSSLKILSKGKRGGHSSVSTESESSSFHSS

In this assay the target is SDF-1/CXCR4 (Homo sapiens (Human), UniProt P61073). In words: IC50 vs SDF-1 (table of specific compounds). It is filed as binding.
The IC50 is the concentration at which inhibition is half-maximal. Lower therefore signals greater potency. `Fc1nc(F)nc(NCc2ccc(CNc3nc(F)nc(F)n3)cc2)n1` [MSX-191] showed a half-inhibitory concentration (IC50) of 100 nM.

The compound `c1ccc(OCc2ccc(COc3ccccc3)cc2)cc1` [MSX-210] returned a concentration for half-maximal inhibition (IC50) of 1000 nM.

`CCc1ccc(NCc2ccc(CNc3ccc(CC)cc3)cc2)cc1` [MSX-140] returned an IC50 of 10 nM.

Compound `COc1cccc(NCc2ccc(CO)cc2)c1` [MSX-204] registered an IC50 of 1000 nM.

The values are drawn from patent US9205085B2, “Tricyclic amino containing compounds for treatment or prevention of symptoms associated with endocrine dysfunction” (Emory University, priority 2011, dated 2015).
